Test results taken from patent US20100008912A1, “COMBINATION DRUG” (TAKEDA PHARMACEUTICAL COMPANY LIMITED, priority 2006, published 2010).

Tested on: N87 (gastric cancer)
Test: Cell growth determination test of combined use, Combination Index, N87
Format: cell-based, human
Conditions: combined use with compound A
Method: The cell density of the cell suspension was measured by cell counter Sysmex CDA500, and the cell density was adjusted to 4×10^4 cell/mL using the aforementioned medium, which was dispensed to each well of a 96 well multi-well culture plate (Nunc) by 0.15 mL and cultured overnight at 37° C., 5% CO2. […] After culturing at 37° C., 5% CO2 for 5 days, the cells of each well were fixed, stained and subjected to colorimetry. The effect of the combined use was determined by the method of Chou T C, Talalay P Adv.
The effect of combined use was determined by the method of Chou T C, Talalay P Adv.

Structure (SMILES): CN(Cc1cnc2nc(N)nc(N)c2n1)c1ccc(C(=O)N[C@@H](CCC(=O)O)C(=O)O)cc1 [methotrexate]
- Combination Index at the time of inhibition of cell growth by 50%: 1.44
